According to patent US8530490B2, “Uracil compound or salt thereof having human deoxyuridine triphosphatase inhibitory activity” (Taiho Pharmaceutical Co., Ltd., priority 2008, dated 2013):
pIC50: −log10 of the molar value. Where two headings read alike, the source gives them in different places.

Chains of the proteins cited; added tags and fusions are not shown. Residues count along the entry.
UniProt P33316, 94-252: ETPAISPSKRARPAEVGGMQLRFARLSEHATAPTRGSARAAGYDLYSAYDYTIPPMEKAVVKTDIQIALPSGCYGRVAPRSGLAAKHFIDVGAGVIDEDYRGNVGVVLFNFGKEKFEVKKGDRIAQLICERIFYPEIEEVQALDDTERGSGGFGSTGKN

Target: human dUTPase (Homo sapiens (Human), UniProt P33316)
Experiment: Human dUTPase inhibitory effect: production of [5-3H]dUMP from [5-3H]dUTP, measured by HPLC with flow scintillation
Type: biochemical
Experimental: The inhibitory activity of the compound of the present invention against human dUTPase was determined by measuring the production of [5-^3H]deoxyuridine monophosphate (hereinafter, referred to as [5-^3H]dUMP) from [5-^3H]deoxyuridine triphosphate (hereinafter, referred to as [5-^3H]dUTP) according to a method shown below.
Specifically, 0.2 mL in total of a solution containing 0.02 mL of 1 μM dUTP (including 588 Bq/mL [5-3H]dUTP), 0.05 mL of a 0.2 M Tris buffer solution (pH 7.4), 0.05 mL of 16 mM magnesium chloride, 0.02 mL of 20 mM 2-mercaptoethanol, 0.02 mL of a 1% aqueous solution of fetal bovine serum-derived albumin, 0.02 mL of varying concentrations of test compound solutions or pure water as a control, and 0.02 mL of a solution of human dUTPase (expressed using E. coli and purified) was reacted at 37° C. for 15 minutes. Immediately after the reaction, the solution was heated at 100° C. for 1 minute to terminate the reaction, followed by centrifugation at 15000 rpm for 2 minutes. An aliquot (150 μL) of the supernatant thus obtained by centrifugation was analyzed using an Atlantis dC18 column (manufactured by Waters Corp., 4.6×250 mm) and a high-performance liquid chromatograph (manufactured by Shimadzu Corp., Prominence). […]
The inhibitory activity of the test compound was determined according to the formula shown below.

Row | pIC50 (human dUTPase, [5-3H]dUMP production from [5-3H]dUTP, 37° C., 15 minutes, read-out: IC50) | SMILES | pIC50
1 |  | CC(C)(CC/C=C/Cn1ccc(=O)[nH]c1=O)NS(=O)(=O)c1cccc(OCC2CC2)c1 [Example 173, (E)-3-(cyclopropylmethoxy)-N-(7-(2,4-dioxo-3,4-dihydropyrimidin-1(2H)-yl)-2-methylhept-5-en-2-yl)benzenesulfonamide] | 7.40
2 | 6.48 | CC(C)(COCCCn1ccc(=O)[nH]c1=O)NS(=O)(=O)c1cccc(OCC2CC2)c1 [Example 175, 3-(cyclopropylmethoxy)-N-(1-(3-(2,4-dioxo-3,4-dihydropyrimidin-1(2H)-yl)propoxy)-2-methylpropan-2-yl)benzenesulfonamide] | 
